High-throughput results (PubChem)
Compounds with a hit are over-represented: about 3.7% of the library has one in this group of screens.
Nrf2 activator – Nrf2 pathway activation. AREc32 ARE-luciferase reporter (MCF7-derived line), luminescence, 24 h. Potency, µM (highest dose often 46.1 µM), for inactives: at the highest dose activation, hits mostly activators. 410,000 tested, 0.31% active; note: potency is the fitted concentration of half-maximal effect; % of control where 0% means no effect; nearly all actives have a fitted effect of over 65% in size
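AREc32 cells carrying an ARE-driven firefly luciferase reporter were seeded at 1000 cells/well in OPTI-MEM with 5% FBS, then exposed to compound for 24 hr at 37 deg C. Luminescence was read with Steady-Glo after 30 min at RT.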
p53 reactivator – restores transcriptional activity of mutant p53; 320,000 tested, 0.063% active; H1299 p53-A138V BP100-luciferase reporter, luminescence, 24 h; Potency, µM (highest dose often 92.2 µM), for inactives: top-dose activity change, positive = activation, most hits filed as activators; note: potency is the fitted concentration of half-maximal effect; % of control where 0% means no effect; nearly all actives have a fitted effect of over 45% in size
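H1299 (p53-null), stable ts p53-A138V + BP100-Luc; 1000 cells/well, Opti-MEM/10% FBS; cpd 4 pt, 1:5; 24 h, 37 deg C, 5% CO2; detection reagent 10 min RT; luminescence.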
Nrf2 block – inhibitors of Nrf2 signaling; 360,000 tested, 2.1% active; Potency, µM (titrated, usually from 46 µM), inactives show top-dose activity change, negative = inhibition, most hits filed as inhibitors; A549 ARE-Fluc reporter, luciferase luminescence, 18-24 h; AID 504444; note: potency is the fitted concentration of half-maximal effect; % is set by controls: 0 for no effect and ±100 for the full control effect; nearly all actives have a fitted effect of over 60% in size
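Two sequential reads on A549 ARE_Fluc cells exposed to compound for 18-24 h: a CellTiter-Fluor fluorescence read for viability, then a luciferase luminescence read for Nrf2/ARE activity.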
ClpP mod – qHTS Assay for Activators of ClpP; purified B. subtilis ClpP, FRET peptide cleavage, 20 min; Potency, µM (titrated, usually from 57.5 µM), inactives show top-dose activity change, negative = active; 340,000 tested, 1.9% active; AID 651965, 2013; active = well fitted falling curve with a large enough effect; inconclusive = small, poorly fitted or top-dose-only effect; inactive = no such curve, though single readings can be large or run the other way; note: potency is the fitted concentration of half-maximal effect; the source files actives as falling curves though it sought activators and does not explain the sign; nearly all actives have a fitted effect of over 65% in size
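FRET quenching reversal measured ClpP activation: 10 microg/mL B. subtilis ClpP at pH 8 with the FRET-FV decapeptide, read at 430 nm after 320 nm excitation. The 20-min minus 0-min signal was scaled between DMSO/no-enzyme wells and ADEP (5.8 microM final).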
miR-21 FLuc – miR-21 reporter, rising signal | HeLa miR-21 FLuc reporter, luciferase, 48 h | Potency, µM (top dose mostly 38.3 µM), inactives show at the highest dose reporter change, positive = more light | 340,000 tested, under 10 active | AID 2288; active = well fitted rising curve with a large enough effect; inconclusive = small, poorly fitted or top-dose-only effect; inactive = no such curve, though single readings can be large or run the other way;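 note: % of control where 0% means no effect; miR-21 action dims this reporter so a rising signal means less miR-21 action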
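Compounds were titrated across several concentrations (up to approximately 40 uM) and incubated 48 hours with HeLa miR-21-FLuc reporter cells (miR-21 target sequence downstream of FLuc, endogenous miR-21). Readout was firefly luciferase luminescence after lytic detection reagent.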
A549 tox – kills or reduces viability of A549 cells in Nrf2 counter-screen | A549 ARE-Fluc cells, CellTiter-Fluor viability, 18-24 h | Potency, µM (doses to about 46 µM), inactives show at the highest dose activity change, negative = cytotoxicity, hits mostly inhibitors | 390,000 tested, 0.16% active; note: potency is the fitted concentration of half-maximal effect; % is set by controls: 0 for no effect and ±100 for the full control effect
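A549 ARE-Fluc cells in 5% FBS OPTI-MEM, 5000 cells/well, rested 2 h then exposed to compounds in concentration-response for 18-24 h at 37 °C. Viability by CellTiter-Fluor fluorescence (Ex 405/Em 525) after 30 min; luciferase luminescence (BugLite, 15 min, RT) read afterwards.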
The depositor's hits bear a star; ? = inconclusive; . = no result given; [ ] = dose if it differs, or a comment. Unless noted, calls come from the whole dose curve; as a rule, active = well fitted curve in the direction sought with a large enough effect; inconclusive = small, poorly fitted or top-dose-only effect, or another doubt; inactive = no such curve, though single readings can be large; an effect the other way counts as inactive or inconclusive.

Preview, 4 compounds:
1	O=C(c1cccn2c(=O)c3cc(Cl)ccc3nc12)N1CCC2(CC1)OCCO2
2	O=C(c1cccn2c(=O)c3ccccc3nc12)N1CCC2(CC1)OCCO2
3	CC1=CC(=C2C(=O)NC(=S)NC2=O)C=C(C(F)(F)F)N1Cc1ccccc1
4	NCC(=O)c1cccc([N+](=O)[O-])c1
compound no.	1	2	3	4
p53 reactivator	5%	19%	2%	.
Nrf2 activator	1%	0%	0%	.
ClpP mod	25µM*	?	.	-3%
Nrf2 block	.	-9%	?	.
A549 tox	4%	-2%	15µM*	.
miR-21 FLuc	-4%	-3%	22%	.

All compounds of this part, repeating the preview:
1	O=C(c1cccn2c(=O)c3cc(Cl)ccc3nc12)N1CCC2(CC1)OCCO2
2	O=C(c1cccn2c(=O)c3ccccc3nc12)N1CCC2(CC1)OCCO2
3	CC1=CC(=C2C(=O)NC(=S)NC2=O)C=C(C(F)(F)F)N1Cc1ccccc1
4	NCC(=O)c1cccc([N+](=O)[O-])c1
5	CC1(C)N([O])C(c2ccc(C(=O)O)cc2)=[N+]([O-])C1(C)C
6	CN1C2CCC1/C(=C/c1ccccn1)C(=O)/C2=C\c1ccccn1
7	NCC(=O)c1ccc(Br)cc1
8	O=C(CCC1CCCC1)c1c(O)c2ccccc2oc1=O
compound no.	1	2	3	4	5	6	7	8
p53 reactivator	5%	19%	2%	.	.	-25%	.	?
Nrf2 activator	1%	0%	0%	.	.	-3%	.	6%
ClpP mod	25µM*	?	.	-3%	1%	2%	-2%	0%
Nrf2 block	.	-9%	?	.	.	5.8µM*	.	21µM*
A549 tox	4%	-2%	15µM*	.	.	7.3µM*	.	?
miR-21 FLuc	-4%	-3%	22%	.	.	?	.	-12%

9	O=c1oc2ccccc2c(O)c1C(c1ccccn1)c1c(O)c2ccccc2oc1=O
10	O=[N+]([O-])c1ccc(CN2CCN(c3ccc(Cl)cc3)CC2)o1
11	O=C(NCC(c1cccnc1)N1CCN(c2ccccc2F)CC1)Oc1ccccc1 (configuration not stated)
12	S=c1[nH]nc(Cn2c(-c3ccccn3)nc3ccccc32)n1-c1ccc2c(c1)OCCO2
13	Cc1ccc(N2CCN(C(=O)C3CCC(CNS(=O)(=O)c4ccc(Br)s4)CC3)CC2C)cc1 (configuration not stated)
14	Cc1ccc(Cn2c(=O)n(CCCCC(=O)NCc3ccccc3Cl)c(=O)c3ccccc32)cc1
15	O=C(C1CCCN(S(=O)(=O)c2cccc3nsnc23)C1)N1CCN(c2cccc(Cl)c2)CC1 (configuration not stated)
16	Cc1ccc(S(=O)(=O)N2CCCC(C(=O)N3CCC4(CC3)OCCO4)C2)cc1 (configuration not stated)
compound no.	9	10	11	12	13	14	15	16
p53 reactivator	-6%	?	-3%	13%	.	.	.	8%
Nrf2 activator	-1%	0%[9.22 µM]	4%	3%	4%	-2%	0%	0%
ClpP mod	2%	.	22µM*	.	-2%	-6%	-1%	0%
Nrf2 block	-8%	9%	-14%	3%	9.2µM*	?	21µM*	2%
A549 tox	-10%	7%	-5%	-3%	1%	-9%	-16%	13%
miR-21 FLuc	-7%	2%	1%	-38%	4%	19%	19%	-1%

17	Cn1c(=O)oc2cc(S(=O)(=O)N3CCCC(C(=O)N4CCN(c5cccc(Cl)c5)CC4)C3)ccc21 (configuration not stated)
18	Cc1csc(NC(=O)C2CCCN(S(=O)(=O)c3ccc4c(c3)oc(=O)n4C)C2)n1 (configuration not stated)
19	C[C@]12CC[C@H]3C(=CCc4cc(O)ccc43)[C@@H]1CCC2=O
20	O=C(N/N=C/c1cc(Br)c(Br)s1)c1ccncc1
21	O=c1c2ccccc2cnn1Cc1n[nH]c(=S)n1C1CC2CCC1C2 (configuration not stated)
22	CCc1ccc(NC(=O)CN2C(=O)C3(SCC(=O)N3c3ccc(F)c(F)c3)c3ccccc32)cc1 (configuration not stated)
23	CCC1(C)Cc2ccccc2-c2c1c(=O)n(Cc1ccccc1)c1nnnn21 (configuration not stated)
24	c1ccc(-c2cc(-c3ccccc3)[n+](-c3ccccc3)c(-c3ccccc3)c2)cc1
compound no.	17	18	19	20	21	22	23	24
p53 reactivator	.	-1%	11%	1%	-6%	.	19%	-9%
Nrf2 activator	-1%	1%	5%	0%	-1%	5%	0%	-3%
ClpP mod	0%	1%	-4%	0%	-1%	-4%	32µM*	.
Nrf2 block	18µM*	?	?	18µM*	?	?	17%	?
A549 tox	0%	-8%	-1%	-11%	-1%	-17%	7%	?
miR-21 FLuc	17%	8%	-57%	27%	2%	?	-3%	?

25	Cc1ccc(-c2cc(-c3ccccc3)cc(-c3ccccc3)[n+]2-c2ccccc2)cc1
26	Cc1c(P(=S)(c2ccccc2)c2ccccc2)[n+]2ccccc2n1CCc1ccccc1
27	Cc1c(-c2ccc(Br)cc2)c(=O)oc2ccc(OC(=O)N3CCOCC3)cc12
28	N#CC1=C(N)Oc2n[nH]c(-c3ccccc3)c2C1c1cccc(OC(=O)N2CCOCC2)c1 (configuration not stated)
29	CCOc1ccccc1NC(=O)c1sc2nc3c(cc2c1N)CN(Cc1ccccc1)CC3
30	COC(=O)C1=C(c2ccc(-c3ccccc3)c(F)c2)C[C@@H]2CC[C@H]1N2C(=O)NCCOc1ccccc1Cl
31	CCCNC(=O)N1[C@H]2CC[C@@H]1C(C(=O)OC)=C(c1ccc(-c3ccccc3)c(F)c1)C2
32	COC(=O)C1=C(c2ccc(-c3ccccc3)c(F)c2)C[C@@H]2CC[C@H]1N2C(=O)NCc1ccco1
compound no.	25	26	27	28	29	30	31	32
p53 reactivator	-24%	.	.	10%	.	5%	1%	-1%
Nrf2 activator	-3%	0%	6%	6%	1%	0%	4%	0%
ClpP mod	?	.	-10%	-2%	-18%	-13%	-1%	-3%
Nrf2 block	18µM*	?	.	?	?	16µM*	16µM*	15µM*
A549 tox	?	-27%	?	0%	3%	-20%	0%	-19%
miR-21 FLuc	.	.	10%	8%	13%	.	.	.

33	COC(=O)C1=C(c2ccc(-c3ccccc3)c(F)c2)C[C@@H]2CC[C@H]1N2C(=O)NCCO
34	Cc1sc(NC(=O)Cn2c(=O)oc3ccccc32)nc1-c1ccc(Cl)cc1
35	O=c1oc2cccnc2n1CCS(=O)(=O)c1ccc(F)cc1
36	S=C(NCCc1ccccc1)N1Cc2cc(-c3ccccc3)ccc2-n2nncc2C1
37	S=C(NCCc1ccccc1)N1Cc2cc(N3CCCCC3)ccc2-n2nncc2C1
38	O=C(Nc1ccc(Cl)cc1)Nc1ccc(Cl)c(Cl)c1
39	CCN1CCN(c2ccc(NC(C)=O)cc2Cl)CC1
40	C=CCn1c(O)c(C=Nc2ccc(N(CC)CC)cc2)c(=O)[nH]c1=O
41	COc1ccc(C(=O)CCNc2ccc(F)cc2)cc1
compound no.	33	34	35	36	37	38	39	40	41
p53 reactivator	-9%	-11%	12%	.	.	28µM*	-1%	18%	15%
Nrf2 activator	-1%	0%	?	-1%	4%	4%	0%	5%	6%
ClpP mod	4%	-5%	.	-2%	32µM*	-1%	1%	-1%	28µM*
Nrf2 block	-25%	?	-24%	.	.	?	12%	3.3µM*	?
A549 tox	0%	-1%	-5%	.	.	?	6%	-11%	1%
miR-21 FLuc	.	-10%	7%	.	.	.	-4%	-5%	-18%
